Laboratory results reported in patent US20250163168A1, “NOVEL ANTIBODIES AND ANTIBODY CONJUGATES FOR THE TREATMENT OF METABOLIC DISORDERS” (PFIZER INC., priority 2023, published 2025).

Protein sequences, listed by entry. Tags and fused reporters are not part of them. Residues count along the entry.
UniProt P43220, 24-463: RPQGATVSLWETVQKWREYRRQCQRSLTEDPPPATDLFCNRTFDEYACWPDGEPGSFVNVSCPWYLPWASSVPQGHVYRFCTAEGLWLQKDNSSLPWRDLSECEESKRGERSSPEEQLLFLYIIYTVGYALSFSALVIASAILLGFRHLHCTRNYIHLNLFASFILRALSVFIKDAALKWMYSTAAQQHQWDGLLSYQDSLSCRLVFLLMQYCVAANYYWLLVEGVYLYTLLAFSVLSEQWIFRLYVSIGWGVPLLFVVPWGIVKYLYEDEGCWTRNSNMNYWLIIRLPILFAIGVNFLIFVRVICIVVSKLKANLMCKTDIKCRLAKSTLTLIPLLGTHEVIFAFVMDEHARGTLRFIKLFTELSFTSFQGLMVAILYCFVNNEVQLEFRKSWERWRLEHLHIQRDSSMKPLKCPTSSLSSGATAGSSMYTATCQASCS

Target: T1, human GLP1R (Homo sapiens, UniProt P43220)
T1 construct: expressed in transfected cells; host or cells: CHO
Assay: GLP1R agonist cAMP assay in CHO cells stably expressing human GLP1R
Format: cell-based
Conditions: relative to maximal effect of human GLP-1, read-out: GLP1R agonist mode Emax (%)
Protocol: cAMP assay: The in vitro agonist potency of the peptides disclosed herein was evaluated using a cell-based assay measuring cAMP production. CHO cells stably expressing human GLP1R, or both human GIPR and GLP1R, were incubated with increasing concentrations of agonists for 30 minutes at 37° C. Cells were lysed and cAMP was detected using a homogenous time resolved fluorescence detection kit, as described by the manufacturer (Revvity). […] The EC50 and maximum effect (Emax) values were then determined from the normalized effects and agonist concentrations using a four-parameter logistic equation (GraphPad Prism).

Emax [%]	Structure (SMILES)
106	CC[C@H](C)[C@H](NC(=O)[C@H](Cc1ccccc1)NC(=O)[C@H](CCC(=O)O)NC(=O)[C@H](CCCCN)NC(=O)[C@H](C)NC(=O)[C@H](C)NC(=O)[C@H](CCC(N)=O)NC(=O)[C@H](CCC(=O)O)NC(=O)[C@H](CCC(=O)O)NC(=O)[C@H](CC(C)C)NC(=O)[C@H](Cc1ccc(O)cc1)NC(=O)[C@H](CO)NC(=O)[C@H](CO)NC(=O)[C@@H](NC(=O)[C@H](CC(=O)O)NC(=O)[C@H](CO)NC(=O)[C@@H](NC(=O)[C@H](Cc1ccccc1)NC(=O)[C@@H](NC(=O)CNC(=O)[C@H](CCC(=O)O)NC(=O)C(C)(C)NC(=O)[C@@H](N)Cc1c[nH]cn1)[C@@H](C)O)[C@@H](C)O)C(C)C)C(=O)N[C@@H](C)C(=O)N[C@@H](Cc1c[nH]c2ccccc12)C(=O)N[C@@H](CC(C)C)C(=O)N[C@H](C(=O)N[C@@H](CCCCN)C(=O)NCC(=O)N[C@@H](CCCNC(=N)N)C(=O)NCC(=O)NCC(=O)NCC(=O)NCC(=O)NCC(=O)N[C@@H](CO)C(=O)NCC(=O)NCC(=O)NCC(=O)NCC(=O)N[C@@H](CO)C(=O)NCC(=O)NCC(=O)NCC(=O)NCC(=O)N[C@@H](CO)C(=O)N[C@@H](CCCCNC(=O)CBr)C(N)=O)C(C)C [compound 149]
104	CC[C@H](C)[C@H](NC(=O)[C@H](Cc1ccccc1)NC(=O)[C@H](CCC(=O)O)NC(=O)[C@H](CCCCN)NC(=O)[C@H](C)NC(=O)[C@H](C)NC(=O)[C@H](CCC(N)=O)NC(=O)C(C)(C)NC(=O)[C@H](CCC(=O)O)NC(=O)[C@H](CC(C)C)NC(=O)[C@H](Cc1ccc(O)cc1)NC(=O)[C@H](CO)NC(=O)[C@H](CO)NC(=O)[C@@H](NC(=O)[C@H](CC(=O)O)NC(=O)[C@H](CO)NC(=O)[C@@H](NC(=O)[C@H](Cc1ccccc1)NC(=O)[C@@H](NC(=O)CNC(=O)[C@H](CCC(=O)O)NC(=O)C(C)(C)NC(=O)[C@@H](N)Cc1c[nH]cn1)[C@@H](C)O)[C@@H](C)O)C(C)C)C(=O)N[C@@H](C)C(=O)N[C@@H](Cc1c[nH]c2ccccc12)C(=O)N[C@@H](CC(C)C)C(=O)N[C@H](C(=O)N[C@@H](CCCCN)C(=O)NCC(=O)N[C@@H](CCCNC(=N)N)C(=O)NCC(=O)NCC(=O)NCC(=O)NCC(=O)NCC(=O)N[C@@H](CO)C(=O)NCC(=O)NCC(=O)NCC(=O)NCC(=O)N[C@@H](CO)C(=O)NCC(=O)NCC(=O)NCC(=O)NCC(=O)N[C@@H](CO)C(=O)N[C@@H](CCCCNC(=O)CBr)C(N)=O)C(C)C [compound 150]
